Results from patent publication US20170157260A1, “Glycosylated Polypeptide and Drug Composition Containing said Polypeptide” (Glytech, Inc., priority 2011, published 2017).

Protein sequences, listed by entry. Tags and fused reporters are not part of them. Lines headed by an entry give the natural chain unless they say otherwise; changes in a name come on top.
UniProt P32745: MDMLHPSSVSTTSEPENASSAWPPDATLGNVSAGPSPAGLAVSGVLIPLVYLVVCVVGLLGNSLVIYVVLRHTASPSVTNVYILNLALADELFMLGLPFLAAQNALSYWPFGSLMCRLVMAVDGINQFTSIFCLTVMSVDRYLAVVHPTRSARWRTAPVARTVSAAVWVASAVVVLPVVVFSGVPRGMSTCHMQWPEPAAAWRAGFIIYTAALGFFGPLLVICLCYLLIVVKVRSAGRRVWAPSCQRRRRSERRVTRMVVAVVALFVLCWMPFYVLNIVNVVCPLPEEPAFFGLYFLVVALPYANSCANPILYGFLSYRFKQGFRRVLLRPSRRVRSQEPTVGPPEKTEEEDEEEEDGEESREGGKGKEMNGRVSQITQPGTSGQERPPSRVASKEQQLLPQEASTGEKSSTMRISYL
UniProt P30874: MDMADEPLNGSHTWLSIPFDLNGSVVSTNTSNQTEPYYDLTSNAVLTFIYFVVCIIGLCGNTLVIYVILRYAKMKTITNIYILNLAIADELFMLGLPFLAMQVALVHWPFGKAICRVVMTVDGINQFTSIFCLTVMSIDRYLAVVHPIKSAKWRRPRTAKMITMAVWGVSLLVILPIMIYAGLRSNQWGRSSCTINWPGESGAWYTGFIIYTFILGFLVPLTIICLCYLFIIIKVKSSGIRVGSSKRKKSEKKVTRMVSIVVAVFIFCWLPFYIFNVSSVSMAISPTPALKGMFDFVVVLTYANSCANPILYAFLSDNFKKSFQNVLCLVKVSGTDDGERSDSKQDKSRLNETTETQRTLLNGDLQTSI
UniProt P30872: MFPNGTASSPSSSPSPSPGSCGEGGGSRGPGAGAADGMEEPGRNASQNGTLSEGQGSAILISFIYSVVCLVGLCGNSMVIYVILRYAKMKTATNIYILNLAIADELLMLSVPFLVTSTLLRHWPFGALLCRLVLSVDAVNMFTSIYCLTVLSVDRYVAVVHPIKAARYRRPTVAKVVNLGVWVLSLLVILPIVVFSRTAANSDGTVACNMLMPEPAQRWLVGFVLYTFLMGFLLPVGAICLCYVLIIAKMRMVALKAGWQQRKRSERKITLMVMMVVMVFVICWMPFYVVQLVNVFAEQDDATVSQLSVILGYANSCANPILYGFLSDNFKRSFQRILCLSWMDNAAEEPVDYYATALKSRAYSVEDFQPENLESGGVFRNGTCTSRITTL
UniProt P31391: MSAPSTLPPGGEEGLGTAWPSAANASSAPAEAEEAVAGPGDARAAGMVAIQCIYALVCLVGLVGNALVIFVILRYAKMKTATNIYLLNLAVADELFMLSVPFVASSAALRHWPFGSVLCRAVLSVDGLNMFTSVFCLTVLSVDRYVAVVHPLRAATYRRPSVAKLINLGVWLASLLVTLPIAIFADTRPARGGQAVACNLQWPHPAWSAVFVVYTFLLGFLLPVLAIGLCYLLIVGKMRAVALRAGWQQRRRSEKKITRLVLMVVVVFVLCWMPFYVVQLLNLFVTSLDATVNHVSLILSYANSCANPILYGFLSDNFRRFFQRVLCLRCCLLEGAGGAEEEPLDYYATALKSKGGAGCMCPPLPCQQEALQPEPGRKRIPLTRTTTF
UniProt P35346: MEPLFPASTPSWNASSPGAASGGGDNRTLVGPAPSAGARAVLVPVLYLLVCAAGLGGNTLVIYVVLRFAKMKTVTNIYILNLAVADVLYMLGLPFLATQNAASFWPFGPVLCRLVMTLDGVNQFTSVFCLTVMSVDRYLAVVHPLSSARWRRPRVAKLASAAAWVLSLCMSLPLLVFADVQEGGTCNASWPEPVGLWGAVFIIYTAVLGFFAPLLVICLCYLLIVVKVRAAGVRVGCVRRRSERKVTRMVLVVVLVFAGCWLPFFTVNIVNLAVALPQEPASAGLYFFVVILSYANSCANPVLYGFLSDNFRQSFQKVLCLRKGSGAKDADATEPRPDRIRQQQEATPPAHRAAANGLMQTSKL

Key:
SSTR3 [1] = molecular target: T1, SSTR3 (Homo sapiens, UniProt P32745); experiment: Agonist activity evaluation (cAMP production suppression), SSTR3 receptor expression cells; assay type: cell-based; design: host or cells: CHO-K1 cells; conditions: Table 3E, Example 67-4; read-out: IC50 of the agonist activity, SSTR3
SSTR2 [2] = molecular target: T2, SSTR2 (Homo sapiens, UniProt P30874); experiment: Agonist activity evaluation (cAMP production suppression), SSTR2 receptor expression cells; assay type: cell-based; design: host or cells: CHO-K1 cells
[3] = Pharmacokinetics test with rats (intravenous and subcutaneous administration); conditions: rats; for extension of t1/2 compared to the non-glycosylated form (SRIF28 or SRIF14) / increase of AUC compared to the non-glycosylated form (SRIF28 or SRIF14): administered intravenously; for BA: subcutaneous vs intravenous
SSTR1 [4] = molecular target: T3, SSTR1 (Homo sapiens, UniProt P30872); experiment: Agonist activity evaluation (cAMP production suppression), SSTR1 receptor expression cells; assay type: cell-based
SSTR4 = SSTR4 (Homo sapiens, UniProt P31391); experiment: Agonist activity evaluation (cAMP production suppression), SSTR4 receptor expression cells; assay type: cell-based
SSTR5 [5] = molecular target: T4, SSTR5 (Homo sapiens, UniProt P35346); experiment: Agonist activity evaluation (cAMP production suppression), SSTR5 receptor expression cells; assay type: cell-based; design: host or cells: CHO-K1 cells
SSTR2 [6] = molecular target: T2, SSTR2; experiment: Competitive binding assay, SSTR2; conditions: Table 3B, Example 67-2, competitive binding assay; for IC50: read-out: SSTR2 IC50; for Ki: read-out: SSTR2 Ki
SSTR1 [7] = molecular target: T3, SSTR1; experiment: Competitive binding assay, SSTR1; conditions: Table 3B, Example 67-2, competitive binding assay; for IC50: read-out: SSTR1 IC50; for Ki: read-out: SSTR1 Ki
SSTR5 [8] = molecular target: T4, SSTR5; experiment: Competitive binding assay, SSTR5; conditions: Table 3B, Example 67-2, competitive binding assay; for IC50: read-out: SSTR5 IC50; for Ki: read-out: SSTR5 Ki
SSTR3 [9] = molecular target: T1, SSTR3; experiment: Competitive binding assay, SSTR3; conditions: Table 3B, Example 67-2, competitive binding assay; for IC50: read-out: SSTR3 IC50; for Ki: read-out: SSTR3 Ki
[10] = tested on: growth hormone (GH) production; experiment: GH production suppression test with rats; assay type: in vivo; conditions: Table 8 (Example 87), vehicle 1012
[11] = Table 3E, Example 67-4, read-out: IC50 of the agonist activity, SSTR2
[12] = intravenous administration, Table 5A (Examples 69-72), spread in the line below
[13] = intravenous administration, Tables 5B-5F (Examples 73-84)
[14] = subcutaneous administration, Table 5A (Examples 69-72), spread in the line below
[15] = subcutaneous administration, Tables 5B-5F (Examples 73-84)
[16] = Examples 69-72 (text on Table 5A)
[17] = Table 3E, Example 67-4, read-out: IC50 of the agonist activity, SSTR1
[18] = Table 3E, Example 67-4, read-out: IC50 of the agonist activity, SSTR4
[19] = Table 3E, Example 67-4, read-out: IC50 of the agonist activity, SSTR5
[20] = Table 5E, intravenous, unit as in Table 4
[21] = Table 5E, subcutaneous, unit as in Table 4

S1-3C(disialo)-SRIF28 [Example 24]
IC50 (SSTR3 [1]): 0.79 nM | IC50 (SSTR2 [2]; [11]): 0.19 nM | extension of t1/2 compared to the non-glycosylated form (SRIF28 or SRIF14) [3]: 30 folds | increase of AUC compared to the non-glycosylated form (SRIF28 or SRIF14) [3]: 12 folds | Intravenous administration AUC [3, 12]: 5660 nM·min | Intravenous administration C0 [3, 12]: 1061 nM | Intravenous administration MRT [3, 12]: 24.0 min | Intravenous administration t1/2 [3, 12]: 38.5 min | Intravenous administration AUC [3, 13]: 5834 nM·min | Intravenous administration C0 [3, 13]: 1083 nM | Intravenous administration MRT [3, 13]: 23.8 min | Intravenous administration T1/2 [3, 13]: 39.5 min | Subcutaneous administration AUC [3, 14]: 3884 nM·min | Subcutaneous administration Cmax [3, 14]: 27.5 nM | Subcutaneous administration MRT [3, 14]: 126 min | Subcutaneous administration t1/2 [3, 14]: 87.7 min | Subcutaneous administration AUC [3, 15]: 4174 nM·min | Subcutaneous administration Cmax [3, 15]: 30.7 nM | Subcutaneous administration MRT [3, 15]: 115 min | Subcutaneous administration T1/2 [3, 15]: 79.3 min | BA ([3]; BA=(AUC(sc)/Dose(sc))/(AUC(iv)/Dose(iv)), Table 5A): 69% | BA ([3]; Tables 5B-5F (Examples 73-84)): 72% | AUC for intravenous administration [3, 16]: 5660 nM·min | bioavailability (BA), subcutaneous administration [3, 16]: 69% | IC50 (SSTR1 [4]; [17]): 7.5 nM | IC50 (SSTR4; [18]): 0.36 nM | IC50 (SSTR5 [5]; [19]): 0.97 nM

S1C (GlcNAc)-SRIF28 [Example 53]
IC50 (SSTR3 [1]): 0.14 nM | IC50 (SSTR2 [2]; [11]): 0.04 nM | IC50 (SSTR2 [6]): 0.225 nM | Ki (SSTR2 [6]): 0.12 nM | IC50 (SSTR1 [7]): 5.91 nM | Ki (SSTR1 [7]): 4.89 nM | Intravenous administration AUC [3, 13]: 690 nM·min | Intravenous administration C0 [3, 13]: 666 nM | Intravenous administration MRT [3, 13]: 3.00 min | Intravenous administration T1/2 [3, 13]: 1.80 min | Subcutaneous administration AUC [3, 15]: 63 nM·min | Subcutaneous administration Cmax [3, 15]: 7.10 nM | Subcutaneous administration MRT [3, 15]: 7.90 min | Subcutaneous administration T1/2 [3, 15]: 5.90 min | BA ([3]; Tables 5B-5F (Examples 73-84)): 9% | IC50 (SSTR1 [4]; [17]): 1.4 nM | IC50 (SSTR5 [8]): 1.15 nM | Ki (SSTR5 [8]): 0.65 nM | IC50 (SSTR4; [18]): 0.049 nM | IC50 (SSTR3 [9]): 1.65 nM | Ki (SSTR3 [9]): 0.555 nM | IC50 (SSTR5 [5]; [19]): 0.031 nM

S1C(asialo)-SRIF28 [Example 27]
IC50 (SSTR2 [2]; Table 3D, Example 67-3, read-out: IC50 of cAMP production suppressing action (agonist activity), SSTR2): 0.041 ± 0.006 nM | IC50 (SSTR2 [6]): 0.2 nM | Ki (SSTR2 [6]): 0.105 nM | IC50 (SSTR1 [7]): 3.97 nM | Ki (SSTR1 [7]): 3.29 nM | C0, intravenous administration ([3]; Table 5E, intravenous, extrapolation, unit as in Table 4): 749 nM | MRT, intravenous administration [3, 20]: 12.5 min | T1/2, intravenous administration [3, 20]: 13.4 min | AUC, subcutaneous administration [3, 21]: 710 nM·min | Cmax, subcutaneous administration [3, 21]: 17.2 nM | MRT, subcutaneous administration [3, 21]: 29.0 min | T1/2, subcutaneous administration [3, 21]: 19.7 min | BA (bioavailability), subcutaneous administration ([3]; Table 5E, formula of b926): 16% | extension of t1/2 compared to the non-glycosylated form (SRIF28 or SRIF14) [3]: 10 folds | increase of AUC compared to the non-glycosylated form (SRIF28 or SRIF14) [3]: 10 folds | Intravenous administration AUC [3, 13]: 4802 nM·min | Intravenous administration C0 [3, 13]: 749 nM | Intravenous administration MRT [3, 13]: 12.5 min | Intravenous administration T1/2 [3, 13]: 13.4 min | Subcutaneous administration AUC [3, 15]: 710 nM·min | Subcutaneous administration Cmax [3, 15]: 17.2 nM | Subcutaneous administration MRT [3, 15]: 29.0 min | Subcutaneous administration T1/2 [3, 15]: 19.7 min | BA ([3]; Tables 5B-5F (Examples 73-84)): 16% | IC50 (SSTR1 [4]; Table 3D, Example 67-3, read-out: IC50 of cAMP production suppressing action (agonist activity), SSTR1): 1.6 ± 0.6 nM | GH ([10]; dose 1 nmol/kg): 879 ng/mL | GH ([10]; dose 3 nmol/kg): 515 ng/mL | GH ([10]; dose 10 nmol/kg): 146 ng/mL | IC50 (SSTR5 [8]): 1.04 nM | Ki (SSTR5 [8]): 0.588 nM | IC50 (SSTR4; Table 3D, Example 67-3, read-out: IC50 of cAMP production suppressing action (agonist activity), SSTR4): 0.039 ± 0.021 nM | IC50 (SSTR3 [9]): 1.02 nM | Ki (SSTR3 [9]): 0.349 nM | IC50 (SSTR5 [5]; Table 3D, Example 67-3, read-out: IC50 of cAMP production suppressing action (agonist activity), SSTR5): 0.055 ± 0.031 nM

S1C(diGlcNAc)-SRIF28 [Example 50]
IC50 (SSTR3 [1]): 0.14 nM | IC50 (SSTR2 [2]; [11]): 0.045 nM | IC50 (SSTR2 [6]): 0.19 nM | Ki (SSTR2 [6]): 0.1 nM | IC50 (SSTR1 [7]): 5.04 nM | Ki (SSTR1 [7]): 4.17 nM | Intravenous administration AUC [3, 13]: 3588 nM·min | Intravenous administration C0 [3, 13]: 495 nM | Intravenous administration MRT [3, 13]: 12.3 min | Intravenous administration T1/2 [3, 13]: 10.5 min | Subcutaneous administration AUC [3, 15]: 445 nM·min | Subcutaneous administration Cmax [3, 15]: 13.2 nM | Subcutaneous administration MRT [3, 15]: 25.7 min | Subcutaneous administration T1/2 [3, 15]: 16.5 min | BA ([3]; Tables 5B-5F (Examples 73-84)): 12% | IC50 (SSTR1 [4]; [17]): 1.2 nM | IC50 (SSTR5 [8]): 1.45 nM | Ki (SSTR5 [8]): 0.82 nM | IC50 (SSTR4; [18]): 0.05 nM | IC50 (SSTR3 [9]): 2.02 nM | Ki (SSTR3 [9]): 0.69 nM | IC50 (SSTR5 [5]; [19]): 0.033 nM

S1C(diMan)-SRIF28 [Example 51]
IC50 (SSTR3 [1]): 0.11 nM | IC50 (SSTR2 [2]; [11]): 0.035 nM | IC50 (SSTR2 [6]): 0.14 nM | Ki (SSTR2 [6]): 0.075 nM | IC50 (SSTR1 [7]): 5.06 nM | Ki (SSTR1 [7]): 4.18 nM | Intravenous administration AUC [3, 13]: 1445 nM·min | Intravenous administration C0 [3, 13]: 423 nM | Intravenous administration MRT [3, 13]: 5.20 min | Intravenous administration T1/2 [3, 13]: 5.50 min | Subcutaneous administration AUC [3, 15]: 124 nM·min | Subcutaneous administration Cmax [3, 15]: 7.30 nM | Subcutaneous administration MRT [3, 15]: 13.9 min | Subcutaneous administration T1/2 [3, 15]: 9.10 min | BA ([3]; Tables 5B-5F (Examples 73-84)): 9% | IC50 (SSTR1 [4]; [17]): 1.2 nM | IC50 (SSTR5 [8]): 0.55 nM | Ki (SSTR5 [8]): 0.31 nM | IC50 (SSTR4; [18]): 0.043 nM | IC50 (SSTR3 [9]): 1.32 nM | Ki (SSTR3 [9]): 0.45 nM | IC50 (SSTR5 [5]; [19]): 0.037 nM

S1C(tetrasialo)-SRIF28 [Example 56]
IC50 (SSTR3 [1]): 0.25 nM | IC50 (SSTR2 [2]; [11]): 0.13 nM | IC50 (SSTR2 [6]): 1.12 nM | Ki (SSTR2 [6]): 0.597 nM | IC50 (SSTR1 [7]): 17.3 nM | Ki (SSTR1 [7]): 14.2 nM | IC50 (SSTR1 [4]; [17]): 2.8 nM | Ki (SSTR5 [8]): 1.2 nM | IC50 (SSTR4; [18]): 0.081 nM | IC50 (SSTR3 [9]): 5.63 nM | Ki (SSTR3 [9]): 1.93 nM | IC50 (SSTR5 [5]; [19]): 0.11 nM

S1C(trisialo)-SRIF28 [Example 55]
IC50 (SSTR3 [1]): 0.38 nM | IC50 (SSTR2 [2]; [11]): 0.11 nM | Ki (SSTR2 [6]): 0.41 nM | IC50 (SSTR1 [7]): 17 nM | IC50 (SSTR1 [4]; [17]): 4.9 nM | IC50 (SSTR5 [8]): 1.95 nM | Ki (SSTR5 [8]): 1.1 nM | IC50 (SSTR3 [9]): 5.59 nM | Ki (SSTR3 [9]): 1.91 nM | IC50 (SSTR5 [5]; [19]): 0.09 nM

Read-outs that look alike come from different tables or passages of the source.
